## scFv variants of Ab-91 (heavy chain) against a SARS-CoV-2 spike peptide

Source: Engelhart et al. 2022 (doi:10.1038/s41597-022-01779-4), MIT Lincoln Laboratory and A-Alpha Bio; data file from the FLAb repository.

Target: peptide PDVDLGDISGINAS, taken from heptad repeat 2 (HR2) of SARS-CoV-2 spike.

Parent: Ab-91, a human scFv built as VL, three GGGGS repeats, VH. Only the CDRs of the heavy chain vary.
VL: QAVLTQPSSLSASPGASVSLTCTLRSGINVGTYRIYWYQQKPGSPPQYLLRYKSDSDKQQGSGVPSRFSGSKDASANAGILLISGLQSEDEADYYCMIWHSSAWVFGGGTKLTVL
VH: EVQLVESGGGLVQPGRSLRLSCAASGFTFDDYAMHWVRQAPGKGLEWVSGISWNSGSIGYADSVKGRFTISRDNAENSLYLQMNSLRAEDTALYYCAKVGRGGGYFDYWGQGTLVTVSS

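The library (AAYL51) carries one to three amino acid substitutions per variant, with no insertions or deletions. In AlphaSeq, yeast of one mating type display the scFv and yeast of the other type display the target. After mating in shaken culture at 30 °C for 16 h, diploids were selected and their barcode pairs sequenced. Read counts were normalised to the haploid input and turned into Kd by a linear fit to BCL2-family pairs of known affinity, for each replicate. Mating was done three times.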

The parent's heavy chain CDRs are GFTFDDYAMH, GISWNSGSIGYADSVK, VGRGGGYFDY; each variant's own CDRs replace them letter for letter. Values are log10 of the apparent Kd in nM; lower means stronger binding. Where no diploid with the target was found in that replicate, the entry reads "n.d.": below detection, most likely a poor binder, though not proof of it. Three control strains display no target. For library AAYL51, 21% of the pairings with them gave a signal, with a median of 4.54 and one signal in twenty below 3.26, so weak values seen in few replicates may be background. For each scFv, signals with the empty controls are counted beside the result, with their mean in brackets. In this assay the parent's reference entry averaged 1.86; its copy inside this library read 0.88.

CDR-H1,CDR-H2,CDR-H3,"replicates, log10 nM",signal with controls
GFTFDDYAMH,GKSWNFGSIGYADSVK,VGRGGHYFDY,4.30 / n.d. / n.d.,2 of 9 (4.61)
CFTFSDYAMH,GRSWNSGSIGYADSVK,VGRGGGYFDY,n.d. / n.d. / n.d.,0 of 9
GFTFDDYAMH,GISWNSGSIGYADSVK,VGRGGGYFSY,0.68 / 0.52 / -0.14,2 of 9 (3.33)
GFQFDDYAMH,GISWNSGSIGYADSVK,VGYGGGYFPY,n.d. / n.d. / n.d.,0 of 9
GFTFDDYAMH,GISWNSMSIGYADIVK,VGRFGGYFDY,n.d. / n.d. / n.d.,3 of 9 (4.17)
GFSFDDYAMH,GISWNSLSIGYAQSVK,VGRGGGYFDY,1.94 / 1.85 / 1.66,3 of 9 (4.87)
GFTFDDYAMH,GISWNSKSIGYADSVK,KGRGGLYFDY,n.d. / n.d. / 4.63,3 of 9 (4.01)
GFTFDDYAMH,GINWNSGSIGYADSVF,VGRGGGYYDY,n.d. / n.d. / n.d.,0 of 9
GFTFDDYAMM,GISWNSGSIGYADSVK,VGRGGGMNDY,n.d. / n.d. / n.d.,3 of 9 (4.04)
GQTFDDYAMH,GISWNSGMIGYADSVK,VGRGGGYSDY,n.d. / n.d. / n.d.,0 of 9
GFTFDDYAMH,GISWFSGSIGYADSVK,VGRWGGYFDK,n.d. / n.d. / n.d.,4 of 9 (4.51)
GFTFDDYAME,GISWNRGSIGYADSVF,VGRGGGYFDY,n.d. / n.d. / 4.03,2 of 9 (4.61)
GFTFPDYAMH,GISWNSGSIGYADSVH,VGRTGGYFDY,0.83 / 0.93 / 0.62,3 of 9 (4.47)
GFTFDDYAMH,YISWNSGSKGYADSGK,VGRGGGYFDY,5.41 / n.d. / 3.88,3 of 9 (3.98)
GFTFDDYAMH,GISWNSGSIGYAHSWK,VGRGGGYFDF,3.62 / n.d. / n.d.,0 of 9
GFTFDDYFMH,GMSWNSGSIGYADSVK,VGRGGGYFSY,4.34 / 6.58 / n.d.,4 of 9 (4.38)
GFTFDDYAMH,HISWNSGSIGYADSVI,VGRMGGYFDY,3.67 / n.d. / n.d.,4 of 9 (4.13)
GFTFLDYAMH,GISWNSGSIGYADSGK,VGRGCGYFDY,4.79 / n.d. / 5.14,3 of 9 (4.74)
GYTFDDYAMH,GISWNSGSIGYADLVK,VGRGGGVFDY,2.91 / 2.67 / n.d.,0 of 9
EFTFDDYAMH,GISWNSFSIGTADSVK,VGRGGGYFDY,3.91 / n.d. / n.d.,1 of 9 (3.67)
GFFFDDYAMH,GISTNSGSIGYADSVT,VGRGGGYFDY,2.32 / 1.99 / 2.35,5 of 9 (5.38)
GFTFDDDAMH,GISWNGGSIGYADSVK,VGRGGGYFDY,n.d. / 5.17 / n.d.,5 of 9 (5.17)
GFTFDDNAMH,GISWISGSGGYADSVK,VGRGGGYFDY,5.23 / n.d. / n.d.,1 of 9 (5.35)
GFTFDDYAMH,GIFWLSGSIGYADLVK,VGRGGGYFDY,n.d. / n.d. / 3.91,0 of 9
GFTFDDYAMH,GISWNSGSIGYVDLVK,VGRGKGYFDY,n.d. / n.d. / n.d.,0 of 9
GFMFDDYAMH,GISWNSGSWGQADSVK,VGRGGGYFDY,n.d. / n.d. / n.d.,0 of 9
GFTFDDYAMW,GIAWNSGSIGYADSVK,VGRVGGYFDY,4.46 / 5.39 / n.d.,2 of 9 (4.89)
GFTFDDYAMH,GISWNSGSIGVADSVK,VGRGGGYFDY,1.58 / 2.20 / 1.30,2 of 9 (5.57)
GFTGDDYAMT,GISWNSGSIGYADSVK,VGRGGGYFDI,n.d. / n.d. / n.d.,3 of 9 (4.13)
GFTFDDYAMH,GISWNSGQIGFADSVK,VGRGGGYVDY,1.85 / 1.81 / 1.63,2 of 9 (5.29)
GFTFDDYAMH,GISWNSGSIGYADHFK,VGHGGGYFDY,5.43 / 4.60 / n.d.,1 of 9 (3.82)
GFTFDDYAYH,GISWNSGSIGAADSVK,VGRHGGYFDY,3.91 / 5.98 / n.d.,1 of 9 (4.45)
GLTFDDYAMH,GISWNSGSIGYADSVK,VGRGPGYFDY,n.d. / n.d. / n.d.,0 of 9
NFTFDDYHMH,GISWNSGSIGYACSVK,VGRGGGYFDY,n.d. / n.d. / n.d.,2 of 9 (4.07)
GFTFDDYAMH,GISWNSGSIGYADGVK,VGRGGGYFDS,1.09 / 1.30 / 0.73,1 of 9 (5.81)
GVTFDDYAMH,GISWNSGSIGYADSVK,VGRGGGYFWC,0.98 / 1.05 / 0.56,4 of 9 (4.60)
GFTFDDYAMH,GISWNSGSIGYADGVK,VGRGEGMFDY,n.d. / n.d. / n.d.,0 of 9

The 6 strongest on average among those seen in every replicate, once more:

CDR-H1,CDR-H2,CDR-H3,"replicates, log10 nM",signal with controls
GFTFDDYAMH,GISWNSGSIGYADSVK,VGRGGGYFSY,0.68 / 0.52 / -0.14,2 of 9 (3.33)
GFTFPDYAMH,GISWNSGSIGYADSVH,VGRTGGYFDY,0.83 / 0.93 / 0.62,3 of 9 (4.47)
GVTFDDYAMH,GISWNSGSIGYADSVK,VGRGGGYFWC,0.98 / 1.05 / 0.56,4 of 9 (4.60)
GFTFDDYAMH,GISWNSGSIGYADGVK,VGRGGGYFDS,1.09 / 1.30 / 0.73,1 of 9 (5.81)
GFTFDDYAMH,GISWNSGSIGVADSVK,VGRGGGYFDY,1.58 / 2.20 / 1.30,2 of 9 (5.57)
GFTFDDYAMH,GISWNSGQIGFADSVK,VGRGGGYVDY,1.85 / 1.81 / 1.63,2 of 9 (5.29)